Test results published in US12636319B2, “Pharmaceutical composition for preventing or treating atopic disease containing Akkermansia muciniphila strain” (ENTEROBIOME INC., priority 2020, dated 2026).
Values after ≈ are worked out from the molar mass of the structure shown.

Test system: Bacteroides thetiotaomicron ATCC 29741
Experiment: MIC by CLSI broth microdilution, QC strain
Details: ATCC29741

**Q.** Which MIC does the source give for `CCC[C@@H]1C[C@@H](C(=O)N[C@@H]([C@H]2O[C@H](SC)[C@H](O)[C@@H](O)[C@H]2O)[C@H](C)Cl)N(C)C1` [CLI, clindamycin] here?
**A.** 4 µg/mL (≈ 9.41 µM)
